According to US20070025991A1, “Use of antagonists of ghrelin or ghrelin receptor to treat intestinal inflammation” (priority 2003, published 2007):

Tested on: ghrelin receptor (GHS-R) mRNA
Test: TNBS-induced colitis, colonic GHS-R mRNA by quantitative real time PCR
Conditions: colon
Protocol: The procedure for TNBS colitis was performed as previously described (Mazelin, L. et al., Life Sci., 63:293-304 (1998)). Briefly, after an overnight fasting, all animals were lightly anaesthetized by an intraperitoneal injection of pentobarbital sodium (70 mg/kg). A polyethylene cannula (Intramedic PE-20 tubing, Becton Dickinson, Parsippany, N.J.) was introduced into the colon (˜3.0 cm) via the anus.
A solution (100 μl) of 40% ethanol (vehicle) or ethanol-containing TNBS (100 mg/kg; Fluka, Ronkonkoma, N.Y.) was instilled into the colon using a 1 ml syringe. Animals were held head down for one minute after the enema to ensure the permanence of the TNBS solution into the colon. […] After recording the body weight, the whole colon was removed, opened longitudinally, washed in ice-cold saline and its length (cm) and weight (mg) recorded.
Total RNA were prepared using a standard procedure described previously (Chomczynski, P. and Sacchi, N., Anal. Biochem., 162:156-159 (1987)). Equal amount of total RNA was used to detect the expression of ghrelin and GHS-R mRNA by regular RT-PCR, and to quantify the levels of ghrelin and GHS-R mRNA by real time PCR. […]
To examine the expression of ghrelin and its receptor (GHS-R), total RNA was isolated from the removed colons and their mRNA levels were determined by a quantitative real time PCR technique.

Compound: O=[N+]([O-])c1cc([N+](=O)[O-])c(S(=O)(=O)O)c([N+](=O)[O-])c1
- levels of GHS-R remained increased as compared to control (4 days after TNBS treatment (100 mg/kg, rectal)): 5-6 fold
- levels of GHS-R increased as compared to control (one day after TNBS treatment (100 mg/kg, rectal)): up to 76 fold
